Chains of the proteins cited; added tags and fusions are not shown. Lines headed by an entry give the natural chain unless they say otherwise; changes in a name come on top.
UniProt Q9LFT6: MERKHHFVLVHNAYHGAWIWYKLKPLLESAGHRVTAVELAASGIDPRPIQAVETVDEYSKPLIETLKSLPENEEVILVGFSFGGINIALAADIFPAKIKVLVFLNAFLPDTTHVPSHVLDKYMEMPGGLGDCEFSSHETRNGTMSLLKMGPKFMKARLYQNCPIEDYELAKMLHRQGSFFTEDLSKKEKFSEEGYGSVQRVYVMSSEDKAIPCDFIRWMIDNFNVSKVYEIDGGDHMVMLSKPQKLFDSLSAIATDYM

In patent US8940516B2, “Method for the synthesis of chiral cyanohydrins via a hydroxynitrile lyase from brassicaceae” (Evocatal GmbH, priority 2006, dated 2015):

Target: AtHNL (Arabidopsis thaliana, UniProt Q9LFT6)
Settings: cleavage reaction of cyanohydrin by AtHNL, citrate-phosphate buffer pH 5

Compound | Specify activity (U/mg), HCN-Test (see Ib above)
N#CC(O)c1ccccc1 (stereo not shown) [Benzaldehyde cyanohydrin] | 4.3 U/mg
3-Phenoxybenzaldehyde cyano- hydrin | 0.3 U/mg
N#CC1(O)CCCCC1 | 0.11 U/mg
CC(C)(O)C#N | <0.05 U/mg
